Outcome data for two compounds are collected here from PubChem BioAssay AID743019 (Broad Institute, 2013).

Each structure is given as a SMILES string. This is a selection; strong and weak results do not stand in their true shares. Calls of active or inactive are those of the source.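 The calls were made as follows: active = rising signal whose fitted curve reaches the 0.54 level within the top valid dose, showing a melting point (actives reach about 13 µM in these data); inactive = the rest, including activity in the opposite direction.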

A short description of the assay: SYPRO orange dye artefact, no FGF22 present – biochemical, cherry-picked samples, RT-PCR instrument, artefact control for FGF22 binder project, dose response (AID 743019). Also: value is where the raw curve crosses a fixed level and not half-maximal. To be noted: compound-only SYPRO orange thermal shift counter-screen, no protein; at 38 µM (top of the series). On the technique in general: The purpose of a counterscreen is to sort out artefacts and off-target activity.
Take `Nc1ccc(CCCCOc2ccccc2)cc1`: the outcome was inactive.
Take `Cc1ccc(S(=O)(=O)N(CCCN)CCCc2c(C)nc(N)[nH]c2=O)cc1`: the result was inactive.
